Yeast mating assay B: variants of the scFv Ab-14

Values reported by Li et al. 2023, doi:10.1038/s41467-023-39022-2 (FLAb copy).

The target is the same throughout: PDVDLGDISGINAS, from the HR2 region of SARS-CoV-2 spike.

The variants keep the light chain, the linker and the frameworks of Ab-14 (scFv order VH, three GGGGS repeats, VL).
VH: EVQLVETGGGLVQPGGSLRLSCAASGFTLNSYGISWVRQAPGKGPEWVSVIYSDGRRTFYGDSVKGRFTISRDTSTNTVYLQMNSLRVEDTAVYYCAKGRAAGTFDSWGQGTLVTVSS
VL: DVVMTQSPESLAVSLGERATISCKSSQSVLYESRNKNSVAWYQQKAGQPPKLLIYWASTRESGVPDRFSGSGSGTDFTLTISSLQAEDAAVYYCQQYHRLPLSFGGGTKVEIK

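The starting antibody came from a phage panning campaign against this peptide. The variants were designed computationally from a first round of random CDR variants and then made and measured. Group labels follow the data file (Ctrl: baseline library sampled from a position-specific scoring matrix, with some repeated check sequences; GPLM: also part of the Gaussian process libraries; Gen: genetic algorithm; a sequence that several methods proposed may carry one label only). The assay is AlphaSeq: two haploid yeast populations carry antibody and antigen on their surface. After mating in shaken culture at 30 °C for 16 h, diploids were selected and their barcode pairs sequenced. Scores were corrected for input abundance and mapped to Kd with protein pairs of known affinity run in the same pool. Mating was done six times.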

Variants are written as CDR1, CDR2 and CDR3 of the heavy chain (limits as in the source). Parent: GFTLNSYGIS, VIYSDGRRTFYGDSVK, GRAAGTFDS.
Numbers give log10(Kd / nM), so 0 is 1 nM and 3 is 1 µM. Smaller is tighter.
Replicates are averaged; those with no signal do not enter the mean.
A pair that was not seen in that replicate is written "n.d."; this usually means weak binding, but a binder can also be missed.
The range of this assay differs from that of the first round, and the authors advise against merging the two.

CDR-H1 | CDR-H2 | CDR-H3 | group | replicates, log10 nM | mean, log10 nM | signal with controls
GFTLNDYGIS | VMYSDGRRTFYWDQVK | GTAAGKFDS | Ctrl | n.d. / n.d. / n.d. / n.d. / n.d. / n.d. | n.d. | 0 of 18
GYTLNSYGIS | VIYSDGRRQAYSDSVK | GRAAGTFDS | Ctrl | 1.22 / n.d. / 1.26 / 2.29 / n.d. / 1.74 | 1.63 | 0 of 18
GFSLNSYGIS | VIYSDGRRTFYEDSVK | GRAAGTFDS | Ctrl | 0.93 / 0.70 / 0.87 / 1.02 / 0.59 / 0.65 | 0.79 | 1 of 18 (3.53)
GFTVNSYGIS | VIYSDGRRTMYGDSVK | GRAAGTFDQ | Ctrl | n.d. / n.d. / n.d. / n.d. / n.d. / n.d. | n.d. | 0 of 18
GQRLNQYGIS | VIYSDGLRTFYSDSVK | GSAAGTFDS | Ctrl | n.d. / n.d. / 2.78 / n.d. / n.d. / n.d. | 2.78 | 0 of 18
GFDLNSYGIS | VIYSDGRRKFYGDNVK | GRAACTFDS | Ctrl | n.d. / n.d. / n.d. / n.d. / n.d. / n.d. | n.d. | 0 of 18
GFTLNMYGIS | VIYSDGRRTFYGDSVK | GRASGTSDS | Ctrl | 1.20 / n.d. / n.d. / 1.12 / n.d. / n.d. | 1.16 | 1 of 18 (2.40)
GFTLNSYGIS | VIYSDGYRTFYGDSVK | GYAAGTFDS | Ctrl | n.d. / n.d. / n.d. / n.d. / n.d. / n.d. | n.d. | 0 of 18
GFTLNSYGIS | VIYSDGRRTFYGDSVK | GRPAGTFES | Ctrl | n.d. / n.d. / n.d. / n.d. / n.d. / n.d. | n.d. | 0 of 18
GFALNSYGIS | VIYSDGRRTFYGDSVK | GRAALTFDS | Ctrl | n.d. / n.d. / n.d. / n.d. / n.d. / n.d. | n.d. | 0 of 18
GFTLNSYGIS | VIYSDGRRTFYGDSVK | GRWAGTFDS | Ctrl | n.d. / 1.89 / n.d. / n.d. / n.d. / n.d. | 1.89 | 0 of 18
GFWLNSYGIS | VIYSDGRRTFYIDKVK | GYTAGTFDS | Ctrl | n.d. / n.d. / n.d. / n.d. / n.d. / 1.89 | 1.89 | 0 of 18
GFTLADYGIS | VIYSDGRRTFYGDSVK | GRAAGTFDS | Ctrl | 0.77 / 0.67 / 0.85 / 0.86 / 0.61 / 2.79; 0.59 / n.d. / 0.77 / 1.49 / 1.13 / 2.25; 0.91 / 0.61 / 0.20 / 0.24 / 0.86 / 0.64; 1.22 / 1.60 / 0.88 / 1.18 / 0.80 / 1.60 | 1.02 | 1 of 72 (2.22)
GFTLNSYGIS | VIYSDGLRTFYSDSVK | ANAAGTFSS | Ctrl | n.d. / 4.34 / n.d. / n.d. / n.d. / n.d. | 4.34 | 1 of 18 (2.97)
GFTLNEYGIS | VIYSDGRRTFYIDSVK | GRAAGTFFS | Ctrl | n.d. / n.d. / n.d. / n.d. / n.d. / n.d. | n.d. | 0 of 18
GFTLNSYGIS | VIYSDGMRTFYGGSVK | GSAAGTFDS | Ctrl | n.d. / n.d. / n.d. / n.d. / n.d. / n.d. | n.d. | 0 of 18
GFCLNSYGIS | VIYSDGRRTFYGDSVK | GRAAGTFDT | Ctrl | n.d. / n.d. / n.d. / n.d. / n.d. / n.d. | n.d. | 0 of 18
GFTLNQYGIS | VEYSDGWRTFYGDSVK | GQAAKTFDL | Ctrl | n.d. / n.d. / n.d. / n.d. / n.d. / n.d. | n.d. | 0 of 18
GFTLNSYGIS | VIYSDGRRTFWGDSVK | GFAAGTFDS | Ctrl | n.d. / n.d. / n.d. / n.d. / n.d. / n.d. | n.d. | 0 of 18
GFTINSYGIS | VIYSDGRRTQYIDSVK | GRAAITFDS | Ctrl | n.d. / n.d. / n.d. / n.d. / n.d. / n.d. | n.d. | 0 of 18
GFTLNSYGIS | VIYSDGRRTFYSDSVK | GRAAGYFDS | Ctrl | n.d. / n.d. / n.d. / 2.29 / n.d. / n.d. | 2.29 | 2 of 18 (1.79)
RFTLDSYGIS | VIYADGFRTFYGDSVK | ARSAGTFDS | Ctrl | n.d. / n.d. / n.d. / n.d. / n.d. / n.d. | n.d. | 0 of 18
GFTLNSYGIS | VIYSDGWRTFYGDSVK | GRAAGTFDS | Ctrl | n.d. / n.d. / n.d. / n.d. / n.d. / n.d. | n.d. | 0 of 18
GFNLNSYGIS | VIYSDGHRTFYGDNVK | GRAAGTFDS | Ctrl | 2.17 / 2.16 / 0.89 / 1.25 / 2.09 / 3.21 | 1.96 | 0 of 18
GFTLQSHGIS | VIYSDGMRTFYGDSVK | GRAAGTFDS | Ctrl | n.d. / n.d. / n.d. / n.d. / n.d. / n.d. | n.d. | 1 of 18 (1.26)
GFTLNSYGIS | VIYSDGRRTFYGDSVK | GGAAGTFDT | Ctrl | 0.76 / 0.66 / 0.89 / 1.67 / 0.86 / 1.33 | 1.03 | 0 of 18
GFTLNSYGIS | VIYSDGFRTFYGDSVK | GRAAGGFDD | Ctrl | n.d. / n.d. / n.d. / n.d. / n.d. / n.d. | n.d. | 0 of 18
GFDLNSYGIS | VIYSDGRRTFYGDSVK | GQAAGTWDG | Ctrl | n.d. / n.d. / n.d. / n.d. / n.d. / n.d. | n.d. | 1 of 18 (1.55)
GFNLDSYGVS | VIYSDGRRTAYGDSVK | GRAWGTFDS | Ctrl | n.d. / n.d. / n.d. / 2.40 / n.d. / n.d. | 2.40 | 0 of 18
GFTLNKYGIS | VIYSDGRRTFYGDSVK | GRAAGTFDS | Ctrl | 2.71 / 2.05 / n.d. / n.d. / n.d. / n.d. | 2.38 | 0 of 18
GFTLNSYGIH | VIYSTGRRTFYTDSVK | GRAAGTFDS | Ctrl | n.d. / n.d. / n.d. / n.d. / n.d. / n.d. | n.d. | 0 of 18
GFNLNSYGIS | VIYSDGRRTFYGDDVK | GRLAGTFDS | Ctrl | 1.12 / 2.57 / 0.97 / 1.67 / n.d. / 1.16 | 1.50 | 0 of 18
GETLNSYGIS | VIYSDGRRTFYGDSVK | HRGAGTFDS | Ctrl | n.d. / n.d. / n.d. / n.d. / n.d. / n.d. | n.d. | 0 of 18
GFHLNSYGIS | VIYSDGRRTFYKDSVK | GRNAGTADS | Ctrl | n.d. / n.d. / n.d. / n.d. / 2.60 / n.d. | 2.60 | 0 of 18
GFTLGSYGIS | VIYSDGRRTFYGDSVK | GRAPATFDS | Ctrl | n.d. / n.d. / n.d. / n.d. / n.d. / n.d. | n.d. | 0 of 18
GFTLNEYGIS | VMYSDGRRTFYGDEVK | GRATGTFDS | Ctrl | n.d. / n.d. / n.d. / n.d. / n.d. / n.d. | n.d. | 1 of 18 (2.97)
GFTLNSYGIS | VIYADGRRTFYGFSVK | GRAAGTFDS | Ctrl | n.d. / n.d. / n.d. / n.d. / n.d. / n.d. | n.d. | 0 of 18
GFNLNQYGIS | VIYSDGRRTFYGDSVK | GRAHGTFDS | Ctrl | n.d. / n.d. / n.d. / n.d. / n.d. / n.d. | n.d. | 0 of 18
GFTLNSYGYS | VIYSDGRRTFYIDSVD | GRAAGTFDS | Ctrl | n.d. / n.d. / n.d. / n.d. / n.d. / n.d. | n.d. | 0 of 18
GFTLNNYGIS | VIYADGRRTFYGDSVK | GRAAGTFDS | Ctrl+GPLM_Gen | 0.37 / 0.37 / 0.13 / 0.16 / 0.04 / 0.16; -0.62 / 0.42 / 0.37 / -0.72 / -0.89 / -0.89 | -0.09 | 0 of 36
GFTLNSYGIS | VIYSDQRRTFYVDSVK | GRAAGTFDS | Ctrl | n.d. / n.d. / n.d. / n.d. / n.d. / n.d. | n.d. | 0 of 18
GFTLNSYGIS | VIYSDGRRTFYGDSVK | GRAAGTSLS | Ctrl | n.d. / n.d. / n.d. / n.d. / n.d. / n.d. | n.d. | 0 of 18
GHTLNSYGIS | VIYSDGRRTFYEDSVK | GRAAGTFFS | Ctrl | n.d. / n.d. / n.d. / n.d. / n.d. / n.d. | n.d. | 0 of 18
GANLNSYGIS | VIYSDGRRTFYGDSVK | GRIADTFDS | Ctrl | n.d. / n.d. / n.d. / n.d. / n.d. / n.d. | n.d. | 0 of 18
GFSLNSYGIS | VIYSDGLRTFYQDSVK | GRAAGTFDS | Ctrl | 0.72 / 0.72 / 1.06 / 0.75 / 0.38 / 0.59 | 0.70 | 0 of 18
GFTLNSYGIS | VIYSDGRRTFYNDAVK | GELAGTFDS | Ctrl | 1.09 / 0.69 / 0.72 / 0.78 / 0.73 / 0.76 | 0.79 | 0 of 18
GFTLNSYGIS | VIYSDGRRTFYGDSVK | GNAAGTFNT | Ctrl | n.d. / 2.65 / 1.73 / n.d. / 1.17 / 1.61 | 1.79 | 0 of 18
GFRLNSYGIS | VIYSDGRRTFYGDSVK | GRASGTFDS | Ctrl | n.d. / n.d. / n.d. / n.d. / n.d. / n.d. | n.d. | 0 of 18
GFTLNSYGIS | VIYSDGRRTFYGPSVK | GRIAGMWDS | Ctrl | n.d. / n.d. / n.d. / n.d. / n.d. / n.d. | n.d. | 0 of 18
GFTPNSYGIS | VIYADGRRTFYGDSVK | GRAAGTFES | Ctrl | n.d. / n.d. / n.d. / n.d. / n.d. / n.d. | n.d. | 1 of 18 (2.10)

For reference, 4 entries of the list once more:

| CDR-H1 | CDR-H2 | CDR-H3 | group | replicates, log10 nM | mean, log10 nM | signal with controls |
|---|---|---|---|---|---|---|
| GFTLNKYGIS | VIYSDGRRTFYGDSVK | GRAAGTFDS | Ctrl | 2.71 / 2.05 / n.d. / n.d. / n.d. / n.d. | 2.38 | 0 of 18 |
| GFTLNSYGIS | VIYSDGRRTFYGPSVK | GRIAGMWDS | Ctrl | n.d. / n.d. / n.d. / n.d. / n.d. / n.d. | n.d. | 0 of 18 |
| GFTLNDYGIS | VMYSDGRRTFYWDQVK | GTAAGKFDS | Ctrl | n.d. / n.d. / n.d. / n.d. / n.d. / n.d. | n.d. | 0 of 18 |
| GYTLNSYGIS | VIYSDGRRQAYSDSVK | GRAAGTFDS | Ctrl | 1.22 / n.d. / 1.26 / 2.29 / n.d. / 1.74 | 1.63 | 0 of 18 |

In the paper, a design with two or fewer of six values counts as a poor binder.
Some sequences occur more than once in the pool; their replicates are listed entry by entry, parted by semicolons.
Nonspecific signal, from three strains lacking the peptide, appeared in 1% of pairings of all heavy chain designs, centred on 2.08 (5% of these signals below 0.84); values are not corrected for it. The control count says in how many pairings with the empty strains this scFv gave a signal, with their mean in brackets.